Assay results reported in patent EP1593384A2, “Compositions for treatment of sexual dysfunction” (Palatin Technologies, Inc., priority 1999, dated 2005).

Tests used:
[1] = Pre-formulation stability study for nasal delivery; format: physicochemical; conditions: 825 mg/mL, twelve weeks, storage at 40° C
Protocol: A series of pre-formulation studies for nasal delivery were conducted.

[2] = Pharmacokinetics after IV administration, plasma levels by MCR-binding bioassay; format: in vivo; conditions: rats, 100 µg/kg, FIG. 1
Sprague Dawley rats [3] = experiment: Observation for adverse side effects after intravenous dosing; conditions: 0.5 to 25 µg/kg, one-half hour observation
[4] = Solubility of the peptide; format: physicochemical; conditions: 0.9% saline; acetate salt form
Protocol: For synthesis, an Fmoc-Lys(R^3)-p-alkoxybenzyl alcohol resin was transferred to a solid phase peptide synthesizer reactor with a mechanical stirrer. The R^3 group, such as 1-(1'-adamantyl)-1-methyl-ethoxycarbonyl (Adpoc), allyloxycarbonyl (Aloc) or 4-methyltrityl (Mtt), was removed and the next Fmoc-protected amino acid (Fmoc-Trp(Boc)-OH) was added to the resin through standard coupling procedures. The Fmoc protective group was removed and the remaining amino acids added individually in the correct sequence, by repeating coupling and deprotection procedures until the amino acid sequence was completed. After completion of coupling with the last Fmoc-amino acid derivative, Fmoc-Nle-OH, and cleavage of the Fmoc protective group, the exposed terminal amino group was acetylated with acetic anhydride and pyridine in N,N-dimethylformamide (DMF). The peptide-resin was dried and the Lys and Asp protective groups cleaved. […]

[5] = Pharmacokinetics after IV administration, plasma levels by MCR-binding bioassay; format: in vivo; conditions: cynomolgus monkeys, 50 µg/kg, FIG. 2
Sprague Dawley rats [6] = conditions: stated as known; cited from earlier work
MC2-R = conditions: read-out: RELATIVE BINDING (KI) MC2-R; competitive inhibition; Y1 cells as receptor source
Sprague Dawley rats [7] = experiment: Induced penile erection by intranasal administration (dosing study); conditions: nasal administration
[8] = test system: men with psychogenic erectile dysfunction; conditions: subcutaneous, 0.025 to 0.157 mg/kg body weight; cited from earlier work
MC4-R = conditions: read-out: RELATIVE BINDING (KI) MC4-R; competitive inhibition; transfected HEK 293 cells

Substance | stability [1] | pharmacokinetic profile [2] | adverse side effects (Sprague Dawley rats [3]) | solubility [4] | pharmacokinetic profile [5] | doses inducing side effects (excessive grooming, yawning, vacuous chewing, hypoactivity, heaving) (Sprague Dawley rats [6]) [µg/kg body weight] | Ki (MC2-R) [nM] | adverse side effects (Sprague Dawley rats [7]) | transient side effects [8] | Ki (MC4-R) [nM]
Ac-Nle-cyclo(-Asp-His-D-Phe-Arg-Trp-Lys)-OH [Compound 1] | shows the stability of the peptide | bi-phasic | No adverse side effects were observed | soluble in 0.9% saline | bi-phasic | – | – | – | – | –
Melanotan-II | – | – | – | – | – | ≥ 300 | > 1000 | adverse side effects were seen with administration of higher doses | nausea, stretching and yawning, and decreased appetite | 1.03
